This is one part of the list.
The molecules below were run on A. baumannii ATCC 17978 (assay: relative growth (fraction of control); higher = less inhibition). Conditions: 50 µM.

Row | Compound | relative growth
1 | CNc1cc(=O)n(C)c(=O)n1C | 0.962
2 | O=C(CCCCCCC(=O)Nc1ccc([C@@H]2O[C@H](CSc3nc(-c4ccccc4)c(-c4ccccc4)o3)C[C@H](c3ccccc3)O2)cc1)NO | 0.986
3 | COC[C@H]1CNN1C(=O)Nc1c(C)noc1C | 0.998
4 | NNC(=O)CCCCCCC(=O)O | 0.897
5 | COC(=O)[C@H]1CCNCCC1=O | 1.05
6 | O=C(NCc1csnn1)c1csnn1 | 0.913
7 | COCC#Cc1ccc2c(c1)O[C@H](CN(C)Cc1ccccc1F)[C@@H](C)CN([C@@H](C)CO)S2(=O)=O | 1.01
8 | NCCc1[nH]cnc1-c1cccs1 | 0.935
9 | C[C@H](O)[C@H](O)[C@@H](O)[C@@H](O)/C=N/NC(=O)c1ccc(C(=O)NO)cc1 | 1.09
10 | O=C(C[C@@H]1CC[C@H]2[C@@H](COC[C@H](O)CN2C(=O)Nc2cccc(Cl)c2)O1)NCc1ccccc1F | 1.08
11 | O=C(O)COCC(=O)Nc1cnccn1 | 1.09
12 | COC(=O)C[C@@H]1CC[C@@H]2[C@H](COC[C@H](O)CN2S(=O)(=O)c2ccccc2C)O1 | 1.16
13 | CCS(=O)(=O)NCC[C@H]1CC[C@H](NC(=O)C2CCOCC2)[C@@H](CO)O1 | 1.08
14 | COC(=O)C[C@H]1CC[C@H]2[C@@H](COC[C@@H](O)CN2S(=O)(=O)c2ccccc2C)O1 | 1.06
15 | C[C@H](O)C#Cc1ccc2c(c1)O[C@@H](CN(C)C(=O)C1CCCCC1)[C@H](C)CN([C@H](C)CO)S2(=O)=O | 0.92
16 | CC(C)Cn1cnc2c(N)nc3ccccc3c21.Cl | 0.892
17 | CN(C)/C=C/C(=S)c1cccs1 | 0.98
18 | CO[C@H]1CN(C)C(=O)c2cc(NC(=O)C3CC3)ccc2OC[C@H](C)N(C(=O)Cc2ccccn2)C[C@@H]1C | 0.998
19 | C/C=C/c1ccc2c(c1)O[C@@H](CN(C)S(=O)(=O)c1ccccc1)[C@@H](C)CN([C@@H](C)CO)S2(=O)=O | 0.847
20 | COc1ccc(S(=O)(=O)N[C@H]2C=C[C@H](CC(=O)N3CCC(Cc4ccccc4)CC3)O[C@@H]2CO)cc1 | 0.718
21 | O=C(CCCN1CCC(O)(c2ccc(Br)cc2)CC1)c1ccc(F)cc1 | 0.818
22 | Nn1c(CO)nc2ccccc21 | 0.889

Row | Compound | relative growth
23 | CN1CCC[C@@H](CC2c3ccccc3Sc3ccccc32)C1 | 0.612
24 | CC1(COc2ccc3c(c2)ncn3-c2ccc3cccc(N4CCC(N)CC4)c3n2)COC1 | 0.295
25 | C=CCC[C@@H](Cc1ccc(F)cc1)C(=O)OC[C@H](Cc1c[nH]c2ccccc12)NC(=O)[C@H](CC=C)CC(=O)N(CCO)Cc1ccccc1 | 1.62
26 | CNC(=O)C[C@@H]1CC[C@@H]2[C@H](COC[C@H](O)CN2C(=O)Nc2cccc(OC)c2)O1 | 1.03
27 | CC1(C)CCC[C@]2(C)[C@H]3CC(=O)O[C@]3(C)CC[C@@H]12 | 1.13
28 | CCS(=O)(=O)N[C@@H]1C=C[C@H](CC(=O)NCc2ccc(Cl)cc2)O[C@H]1CO | 1.11
29 | C[C@@H]1COCCS(=O)(=O)N1C | 1
30 | C[C@@H]1CN([C@H](C)CO)C(=O)c2cc(NS(=O)(=O)c3cccs3)ccc2O[C@@H](C)CCCCO[C@@H]1CN(C)Cc1ccc2c(c1)OCO2 | 1.05
31 | Nc1ccc(Oc2ccccc2)cc1 | 0.844
32 | C=c1cc(C)ccc1=C1NN=C(N)O1 | 1.01
33 | COc1ccc(S(=O)(=O)N[C@@H]2CC[C@@H](CC(=O)N3CCN(c4ccccc4)CC3)O[C@@H]2CO)cc1 | 0.993
34 | COc1cccc(S(=O)(=O)N(C)C[C@H]2OCc3cnnn3CCCC(=O)N([C@H](C)CO)C[C@@H]2C)c1 | 1.16
35 | CCCCC(CC)CN1CN(CC(CC)CCCC)CC(C)(N)C1 (stereo not given) | 0.154
36 | C[C@@H]1CN([C@@H](C)CO)S(=O)(=O)c2ccc(C3=CCCC3)cc2O[C@@H]1CN(C)C(=O)c1cnccn1 | 0.976
37 | CC(=O)OCC1=C(C(=O)[O-])N2C(=O)[C@@H](NC(=O)Cc3cccs3)[C@H]2SC1.[Na+] | 0.954
38 | O=C(C[C@@H]1CC[C@@H](NS(=O)(=O)c2ccc(F)cc2)[C@H](CO)O1)N1CCC(Cc2ccccc2)CC1 | 0.684
39 | O=C(C[C@@H]1C=C[C@H](NC(=O)Nc2cc(F)ccc2F)[C@H](CO)O1)NCCCN1CCOCC1 | 1.02
40 | O=C(C[C@H]1CC[C@@H]2[C@H](COC[C@H](O)CN2S(=O)(=O)c2ccccc2)O1)N1CCOCC1 | 1.06
41 | COC(=O)c1cn(-c2cccc(N)c2)nn1 | 1.09
42 | CN(C)CCCN1c2ccccc2CCc2ccccc21.Cl | 0.905
43 | COc1ccccc1S(=O)(=O)N[C@H]1CC[C@H](CCNC(=O)C2CC2)O[C@H]1CO | 1.2
44 | C=CCC[C@@H](Cc1ccc(F)cc1)C(=O)O[C@@H](CNC(=O)[C@H](CC=C)CC(=O)N(CCO)Cc1ccccc1)c1ccccc1 | 1.2

Row | Compound | relative growth
45 | O=C(N/N=C/[C@H](O)[C@@H](O)[C@H](O)[C@H](O)CO[C@H]1O[C@H](CO)[C@H](O)[C@H](O)[C@H]1O)c1ccccn1 | 1.08
46 | O=C(N[C@H]1C=C[C@H](CC(=O)N2CCOCC2)O[C@@H]1CO)c1ccccn1 | 1.01
47 | O=C(NCc1ccncc1)C(=O)NC[C@H]1OCCN1C(=O)c1ccc(Cl)cc1 | 0.897
48 | C[C@H]1CN([C@@H](C)CO)S(=O)(=O)c2ccc(C#CC3CCCC3)cc2O[C@H]1CN(C)Cc1cncnc1 | 0.768
49 | CCOC(=O)[C@H]1CN(C(C)(C)C)C(=O)C1=O | 0.959
50 | CN(C)CC(=O)N[C@@H]1CC[C@@H](CCNC(=O)C2CC2)O[C@H]1CO | 1.01
51 | O=C(NO)c1cccc(C(=O)N/N=C/[C@H](O)[C@@H](O)[C@H](O)CO)c1 | 1.01
52 | COc1ccc([Si](C)(C)[C@H]2[C@H](CC(=O)N(CCO)Cc3ccccc3)O[C@@]3(C(=O)N(Cc4ccc(N5CCC5=O)cc4)c4ccccc43)[C@@H]2C)cc1 | 1.24
53 | O=C(N[C@@H]1CC[C@@H](CCNS(=O)(=O)c2ccc(F)cc2)O[C@H]1CO)C1CC1 | 1.11
54 | S=C(NCCCc1cnc[nH]1)NCCCN(Cc1ccc(Cl)c(Cl)c1)c1ccc(Br)cn1 | 0.988
55 | O=C(C[C@H]1CC[C@H]2[C@@H](COC[C@@H](O)CN2S(=O)(=O)c2cccc(Cl)c2)O1)N1CCOCC1 | 0.956
56 | NC1(C(=O)O)CCC1 | 1.04
57 | N=c1sccn1CC(=O)O | 0.75
58 | Cc1cccc(S(=O)(=O)N2C[C@@H](O)COC[C@@H]3O[C@@H](CC(=O)NCc4ccc5c(c4)OCO5)CC[C@H]32)c1 | 0.899
59 | O=C(C[C@@H]1CC[C@@H](NS(=O)(=O)c2ccc(F)cc2)[C@@H](CO)O1)NCc1ccc(Cl)c(Cl)c1 | 0.949
60 | COc1cccc(S(=O)(=O)N[C@H]2CC[C@@H](CCn3cc(-c4ccccc4OC)nn3)O[C@H]2CO)c1 | 0.969
61 | COc1ccc(Cc2cnc(N)nc2N)cc1OC | 0.445
62 | NCCCC[C@@H]1NC(=O)[C@H]2C[C@@H](C(=O)NCc3ccc(F)cc3)[C@@H](c3cccc(OCCO)c3)N2C1=O | 1.18
63 | COC(=O)c1cc(S(=O)(=O)N2CCOCC2)cn1C | 1.08
64 | C[C@H](CO)N1C[C@H](C)[C@@H](CN(C)C(=O)c2ccccc2F)Oc2cc(C#CCN(C)C)ccc2S1(=O)=O | 1.1
65 | CC1(C)S[C@@H]2[C@H](NC(=O)[C@H](NC(=O)N3CCNC3=O)c3ccccc3)C(=O)N2C1C(=O)[O-].[Na+] (stereo not given in full) | 0.715
66 | COc1cccc(S(=O)(=O)Nc2ccc3c(c2)[C@H]2C[C@@H](CC(=O)NCc4ccccc4F)O[C@@H](CO)[C@H]2O3)c1 | 0.951

Row | Compound | relative growth
67 | CC(=O)[C@H]1CCC2C3CCC4=CC(=O)CC[C@]4(C)C3CC[C@@]21C (stereo not given in full) | 1.08
68 | O=C(CN1CCOCC1)N[C@@H]1CC[C@@H](CCn2cc(C3CCCC3)nn2)O[C@@H]1CO | 0.934
69 | CN1C(C)(C)CCCC1(C)C.O=C(O)C(O)C(O)C(=O)O | 1.02
70 | COC(=O)c1nc[nH]c1C(=O)OC | 0.989
71 | CC(=O)N1CCN(c2ncnc3nc[nH]c23)CC1 | 1.04
72 | O=C(Nc1ccc(C(=O)O)c(O)c1)c1ccccc1 | 0.974
73 | CCCCOC(=O)c1ccc(N)cc1 | 1.01
74 | O=C(CCNc1n[nH]c(=O)[nH]c1=O)N1CCOCC1 | 1.07
75 | O=S1(=O)C[C@@H]2NC(=S)N[C@@H]2C1 | 1.17
76 | O=CN[C@H](Cc1ccccc1)C(=O)O | 1.06
77 | C[C@@H]1CN([C@H](C)CO)C(=O)c2cc(C#CCc3ccccc3)cnc2O[C@H]1CN(C)C(=O)Cc1cccnc1 | 1.03
78 | O=C(C[C@H]1CC[C@@H]2[C@H](COC[C@@H](O)CN2S(=O)(=O)c2ccccc2)O1)N1CCOCC1 | 0.937
79 | CN(C)CC(=O)N[C@H]1CC[C@@H](CCn2cc(CN(C)C)nn2)O[C@@H]1CO | 0.963
80 | CN(C)CCCCNC(=O)[C@H]1C[C@H]2C(=O)N[C@@H](CCCC[N+](C)(C)C)C(=O)N2[C@H]1c1cccc(OCCO)c1 | 1.19
81 | CO[C@@H]1CN(C)C(=O)c2ccc(NS(=O)(=O)c3cn(C)cn3)cc2OC[C@H](C)N(CC2CC2)C[C@H]1C | 0.957
82 | C=CCOC(=O)[C@H]1[C@@H]2C(=O)O[C@@H](c3ccccc3)[C@@H](c3ccccc3)N2[C@@H](c2ccc(OCCOC(=O)[C@@H]3C[C@@H]4C(=O)N[C@@H](CC(C)C)C(=O)N4[C@@H]3c3cccc(OCCO)c3)cc2)[C@]12C(=O)Nc1ccccc12 | 0.896
83 | C[C@@H]1CN([C@H](C)CO)S(=O)(=O)c2ccc(C#CC3(O)CCCC3)cc2O[C@H]1CN(C)C(=O)Nc1ccc(F)cc1 | 1.03
84 | CC[C@H]1OC(=O)[C@H](C)[C@@H](O[C@H]2C[C@@](C)(OC)[C@@H](O)[C@H](C)O2)[C@H](C)[C@@H](O[C@@H]2O[C@H](C)C[C@H](N(C)C)[C@H]2O)[C@](C)(OC)C[C@@H](C)C(=O)[C@H](C)[C@@H](O)[C@]1(C)O | 0.167
85 | CO[C@@H]1CN(C)C(=O)c2ccc(NC(=O)Nc3cccc(Cl)c3)cc2OC[C@H](C)N(C(=O)Nc2c(C)noc2C)C[C@@H]1C | 1.07
